Legend:
[1] = target: T1, uromodulin binding to light chain ROC (subtype kappa) (Homo sapiens, UniProt P07911); experiment: ELISA: inhibition of biotin-uromodulin binding to plate-coated light chain clone ROC
T1 construct: Uromodulin was precipitated from fresh urine from healthy donors using 0.58M NaCl; from tissue; host or cells: urine of healthy human donors (uromodulin); CHO cells (light chain ROC)
Experimental: Uromodulin was precipitated from fresh urine from healthy donors using 0.58M NaCl. The precipitate was then washed with 0.58M NaCl and resuspended in water. The uromodulin was dialyzed extensively against water to remove salt and other contaminants (MWCo=50 KD). Samples were then stored at −20° C. without lyophilization. Good overall purity was seen by gel electrophoresis.
(§1) Enzyme-linked immunosorbant assays (ELISA) were performed on the disclosed peptides. Plates were coated with the following light chain clones overnight at 4° C.: 0.05 uM BER (subtype lambda, isolated from SP2/0 cells), 0.2 uM ROC (subtype kappa, isolated from CHO cells), and 0.3 uM BEN (subtype lambda, isolated from CHO cells). The plates were washed and treated with bovine serum albumin (BSA) overnight at 4° C. For peptide plates, 10 nM biotin-uromodulin was mixed with peptide overnight at 4° C.

[2] = target: T2, uromodulin binding to light chain BER (subtype lambda) (Homo sapiens, UniProt P07911); experiment: ELISA: inhibition of biotin-uromodulin binding to plate-coated light chain clone BER
T2 construct: Uromodulin was precipitated from fresh urine from healthy donors using 0.58M NaCl; from tissue; host or cells: urine of healthy human donors (uromodulin); SP2/0 cells (light chain BER)
Experimental: (§2) Uromodulin was precipitated from fresh urine from healthy donors using 0.58M NaCl. The precipitate was then washed with 0.58M NaCl and resuspended in water. […] Samples were then stored at −20° C. without lyophilization.
as §1

[3] = target: T3, uromodulin binding to light chain BEN (subtype lambda) (Homo sapiens, UniProt P07911); experiment: ELISA: inhibition of biotin-uromodulin binding to plate-coated light chain clone BEN
T3 construct: Uromodulin was precipitated from fresh urine from healthy donors using 0.58M NaCl; from tissue; host or cells: urine of healthy human donors (uromodulin); CHO cells (light chain BEN)
Experimental: as §2, §1

## CC(C)C[C@@H]1NC(=O)[C@H](CO)NC(=O)[C@H](CC(=O)O)NC(=O)[C@H](CC(=O)O)NC(=O)[C@H](Cc2c[nH]c3ccccc23)NC(=O)[C@H](C)NC(=O)[C@H](C)NC(=O)[C@@H](NC(=O)CCCCCN)CSSC[C@@H](C(=O)N[C@@H](CCCCN)C(=O)N[C@@H](CCCCN)C(N)=O)NC(=O)[C@H](C(C)C)NC(=O)[C@@H]2CCCN2C(=O)CNC(=O)[C@H](CC(N)=O)NC1=O [compound 2]
[1]
  IC50: ≥ 500 µM
[2]
  IC50: ≥ 500 µM

## CC(C)C[C@@H]1NC(=O)[C@@H](NC(=O)CCCCCN)CSSC[C@@H](C(=O)N[C@@H](CCCCN)C(=O)N[C@@H](CCCCN)C(N)=O)NC(=O)[C@H](C(C)C)NC(=O)[C@H](Cc2ccc(O)cc2)NC(=O)[C@H](CC(C)C)NC(=O)[C@H](Cc2ccc(O)cc2)NC(=O)[C@H](CO)NC(=O)CNC(=O)[C@H](CO)NC(=O)[C@H](CO)NC(=O)[C@H](CC(=O)O)NC(=O)[C@H](C)NC(=O)[C@H](CO)NC1=O [compound 4]
[1]
  IC50: ≥ 500 µM
[2]
  IC50: ≥ 500 µM

## CC(C)C[C@@H]1NC(=O)[C@H]([C@@H](C)O)NC(=O)[C@H](CC(N)=O)NC(=O)[C@H](CC(=O)O)NC(=O)[C@H](Cc2ccc(O)cc2)NC(=O)[C@H](CO)NC(=O)[C@H](CCC(N)=O)NC(=O)[C@@H](NC(=O)CCCCCN)CSSC[C@@H](C(=O)N[C@@H](CCCCN)C(=O)N[C@@H](CCCCN)C(N)=O)NC(=O)[C@H](C(C)C)NC(=O)[C@H](Cc2ccc(O)cc2)NC(=O)[C@H](CO)NC(=O)CNC(=O)[C@H](CO)NC1=O [compound 6]
[1]
  IC50: > 120 µM
[2]
  IC50: > 120 µM

## CC(C)C[C@@H]1NC(=O)[C@H](CO)NC(=O)CNC(=O)[C@H](CO)NC(=O)[C@H](CC(C)C)NC(=O)[C@H]([C@@H](C)O)NC(=O)[C@H](CC(N)=O)NC(=O)[C@H](CC(=O)O)NC(=O)[C@H](Cc2ccc(O)cc2)NC(=O)[C@H](CO)NC(=O)[C@H](CCC(N)=O)NC(=O)[C@@H](NC(=O)CCCCCN)CSSC[C@@H](C(=O)N[C@@H](CCCCN)C(=O)N[C@@H](CCCCN)C(N)=O)NC1=O [compound 7]
[1]
  IC50: ≥ 500 µM
[2]
  IC50: ≥ 500 µM

## CC(C)[C@H](NC(=O)[C@H](CC(N)=O)NC(=O)[C@H](CCCNC(=N)N)NC(=O)[C@H](C)NC(=O)[C@H](CC(=O)O)NC(=O)[C@H](Cc1ccc(O)cc1)NC(=O)[C@H](CO)NC(=O)[C@H](CCC(N)=O)NC(=O)[C@H](CS)NC(=O)CCCCCN)C(N)=O [compound 8]
[1]
  IC50: ≥ 500 µM
[2]
  IC50: ≥ 500 µM

## NCCCCCC(=O)N[C@@H](CS)C(=O)N[C@@H](CCC(N)=O)C(=O)N[C@@H](CO)C(=O)N[C@@H](Cc1ccc(O)cc1)C(=O)N[C@@H](CC(=O)O)C(=O)N[C@@H](Cc1c[nH]cn1)C(=O)N[C@@H](CC(N)=O)C(=O)N[C@@H](CC(N)=O)C(=O)N[C@@H](CCC(N)=O)C(N)=O [compound 9]
[1]
  IC50: ≥ 500 µM
[2]
  IC50: ≥ 500 µM

## CC(C)[C@@H]1NC(=O)CNC(=O)[C@H](CCC(=O)O)NC(=O)[C@H](CC(N)=O)NC(=O)[C@H]([C@@H](C)O)NC(=O)[C@H](CO)NC(=O)[C@H](CC(=O)O)NC(=O)[C@H](Cc2ccc(O)cc2)NC(=O)[C@H](CO)NC(=O)[C@H](CCC(N)=O)NC(=O)[C@@H](NC(=O)CCCCCN)CSSC[C@@H](C(=O)N[C@@H](CCCCN)C(=O)N[C@@H](CCCCN)C(N)=O)NC1=O [compound 10]
[1]
  IC50: ≥ 500 µM
[2]
  IC50: ≥ 500 µM

## CC(C)C[C@@H]1NC(=O)[C@@H]2CCCN2C(=O)[C@H](CC(C)C)NC(=O)[C@H](CO)NC(=O)[C@H](CC(=O)O)NC(=O)[C@H](Cc2ccc(O)cc2)NC(=O)[C@H](CCC(N)=O)NC(=O)[C@H](CCC(N)=O)NC(=O)[C@@H](NC(=O)CCCCCN)CSSC[C@@H](C(=O)N[C@@H](CCCCN)C(=O)N[C@@H](CCCCN)C(N)=O)NC(=O)[C@H]([C@@H](C)O)NC1=O [compound 13]
[3]
  IC50: 3.3 µM

## C[C@@H]1NC(=O)[C@H]([C@@H](C)O)NC(=O)[C@H](CO)NC(=O)[C@H](Cc2ccc(O)cc2)NC(=O)[C@H](CCC(N)=O)NC(=O)[C@H](CCC(N)=O)NC(=O)[C@@H](NC(=O)CCCCCN)CSSC[C@@H](C(=O)N[C@@H](CCCCN)C(=O)N[C@@H](CCCCN)C(N)=O)NC(=O)[C@H]([C@@H](C)O)NC(=O)[C@H](Cc2c[nH]c3ccccc23)NC(=O)[C@@H]2CCCN2C1=O [compound 15]
[1]
  IC50: ≥ 500 µM
[2]
  IC50: ≥ 500 µM

## C[C@@H]1NC(=O)[C@H](CO)NC(=O)[C@H](Cc2ccc(O)cc2)NC(=O)[C@H](Cc2ccc(O)cc2)NC(=O)[C@H](CCC(N)=O)NC(=O)[C@H](CCC(N)=O)NC(=O)[C@@H](NC(=O)CCCCCN)CSSC[C@@H](C(=O)N[C@@H](CCCCN)C(=O)N[C@@H](CCCCN)C(N)=O)NC(=O)[C@H]([C@@H](C)O)NC(=O)[C@@H]2CCCN2C(=O)[C@@H]2CCCN2C1=O [compound 16]
[1]
  IC50: > 120 µM
[2]
  IC50: ≥ 500 µM

## C[C@@H](O)[C@@H]1NC(=O)[C@H](Cc2c[nH]c3ccccc23)NC(=O)[C@@H]2CCCN2C(=O)[C@H](Cc2ccc(O)cc2)NC(=O)[C@H](CC(N)=O)NC(=O)[C@H](CCCCN)NC(=O)[C@H](Cc2ccc(O)cc2)NC(=O)[C@H](CCC(N)=O)NC(=O)[C@H](CCC(N)=O)NC(=O)[C@@H](NC(=O)CCCCCN)CSSC[C@@H](C(=O)N[C@@H](CCCCN)C(=O)N[C@@H](CCCCN)C(N)=O)NC1=O [compound 17]
[1]
  IC50: > 120 µM
[2]
  IC50: ≥ 500 µM

## CC[C@H](C)[C@@H]1NC(=O)[C@H](CO)NC(=O)[C@H](Cc2ccc(O)cc2)NC(=O)[C@H](CCC(=O)O)NC(=O)[C@H](CCC(N)=O)NC(=O)[C@H](CCC(N)=O)NC(=O)[C@@H](NC(=O)CCCCCN)CSSC[C@@H](C(=O)N[C@@H](CCCCN)C(=O)N[C@@H](CCCCN)C(N)=O)NC(=O)[C@H]([C@@H](C)O)NC(=O)[C@H](Cc2ccc(O)cc2)NC(=O)[C@@H]2CCCN2C1=O [compound 30]
[1]
  IC50: 25.9 µM
[2]
  IC50: 26.5 µM

## C[C@@H](O)[C@@H]1NC(=O)[C@H](Cc2ccc(O)cc2)NC(=O)[C@@H]2CCCN2C(=O)[C@H](CCC(=O)O)NC(=O)[C@H](CO)NC(=O)[C@H](Cc2ccc(O)cc2)NC(=O)[C@H](CO)NC(=O)[C@H](CCC(N)=O)NC(=O)[C@H](CCC(N)=O)NC(=O)[C@@H](NC(=O)CCCCCN)CSSC[C@@H](C(=O)N[C@@H](CCCCN)C(=O)N[C@@H](CCCCN)C(N)=O)NC1=O [compound 33]
[1]
  IC50: > 120 µM
[2]
  IC50: > 120 µM

## CC[C@H](C)[C@@H]1NC(=O)[C@H](CO)NC(=O)[C@H](Cc2ccc(O)cc2)NC(=O)[C@H](CO)NC(=O)[C@H](CCC(N)=O)NC(=O)[C@H](CCC(N)=O)NC(=O)[C@@H](NC(=O)CCCCCN)CSSC[C@@H](C(=O)N[C@@H](CCCCN)C(=O)N[C@@H](CCCCN)C(N)=O)NC(=O)[C@H]([C@@H](C)O)NC(=O)[C@H](Cc2ccc(O)cc2)NC(=O)[C@H](CCC(=O)O)NC1=O [compound 34]
[1]
  IC50: > 120 µM
[2]
  IC50: > 500 µM

## CC[C@H](C)[C@@H]1NC(=O)[C@H](CO)NC(=O)[C@H](Cc2ccc(O)cc2)NC(=O)[C@H](CO)NC(=O)[C@H](CCC(N)=O)NC(=O)[C@H](CCC(N)=O)NC(=O)[C@@H](NC(=O)CCCCCN)CSSC[C@@H](C(=O)N[C@@H](CCCCN)C(=O)N[C@@H](CCCCN)C(N)=O)NC(=O)[C@H]([C@@H](C)O)NC(=O)[C@H](CCC(=O)O)NC(=O)[C@@H]2CCCN2C1=O [compound 35]
[1]
  IC50: > 120 µM
[2]
  IC50: > 120 µM

## CC[C@H](C)[C@@H]1NC(=O)[C@H](CO)NC(=O)[C@H](Cc2ccc(O)cc2)NC(=O)[C@H](CO)NC(=O)[C@H](CCC(N)=O)NC(=O)[C@H](CCC(N)=O)NC(=O)[C@@H](NC(=O)CCCCCN)CSSC[C@@H](C(=O)N[C@@H](CCCCN)C(=O)N[C@@H](CCCCN)C(N)=O)NC(=O)[C@H](CCC(=O)O)NC(=O)[C@H](Cc2ccc(O)cc2)NC(=O)[C@@H]2CCCN2C1=O [compound 36]
[1]
  IC50: > 500 µM
[2]
  IC50: > 120 µM

## CC[C@H](C)[C@@H]1NC(=O)[C@H](CO)NC(=O)[C@H](Cc2ccc(O)cc2)NC(=O)[C@H](CO)NC(=O)[C@H](CCC(N)=O)NC(=O)[C@H](CCC(N)=O)NC(=O)[C@@H](NC(=O)CCCCCN)CSSC[C@@H](C(=O)N[C@@H](CCCCN)C(=O)N[C@@H](CCCCN)C(N)=O)NC(=O)[C@H]([C@@H](C)O)NC(=O)[C@H](Cc2ccc(O)cc2)NC(=O)[C@H](CCCNC(=N)N)NC1=O [compound 43]
[1]
  IC50: > 120 µM
[2]
  IC50: > 500 µM

## CC[C@H](C)[C@@H]1NC(=O)[C@H](CO)NC(=O)[C@H](Cc2ccc(O)cc2)NC(=O)[C@H](CO)NC(=O)[C@H](CCC(N)=O)NC(=O)[C@H](CCC(N)=O)NC(=O)[C@@H](NC(=O)CCCCCN)CSSC[C@@H](C(=O)N[C@@H](CCCCN)C(=O)N[C@@H](CCCCN)C(N)=O)NC(=O)[C@H](CCCNC(=N)N)NC(=O)[C@H](Cc2ccc(O)cc2)NC(=O)[C@@H]2CCCN2C1=O [compound 45]
[1]
  IC50: > 500 µM
[2]
  IC50: > 500 µM

## CC[C@H](C)[C@@H]1NC(=O)[C@H](CO)NC(=O)[C@@H](Cc2ccc(O)cc2)NC(=O)[C@H](CO)NC(=O)[C@H](CCC(N)=O)NC(=O)[C@H](CCC(N)=O)NC(=O)[C@@H](NC(=O)CCCCCN)C(C)(C)SSC(C)(C)[C@@H](C(=O)N[C@H](CCCCN)C(=O)N[C@H](CCCCN)C(N)=O)NC(=O)[C@H]([C@@H](C)O)NC(=O)[C@H](Cc2ccc(O)cc2)NC(=O)[C@@H]2CCCN2C1=O [compound 48]
[1]
  IC50: 120 µM
[2]
  IC50: 120 µM

Source: patent publication US9611297B1, “Compositions and methods for the treatment of cast nephropathy and related conditions” (Thrasos Therapeutics Inc., priority 2016, dated 2017)
